This experiment can be described thus: Ratio of IC50 for pig liver carboxylesterase to IC50 for horse serum BChE.
On to `C[C@@H](Cn1cc(COP(C)(=O)OC(C(F)(F)F)C(F)(F)F)nn1)NC(=O)CN(Cc1ccccc1)C(=O)C(F)(F)F` (stereo not given in full), for which the Ratio IC50 came to 1. In the case of `COC(=O)C(OP(C)(=O)OCc1cn(C[C@@H](NC(=O)CN(Cc2ccccc2)C(=O)[C@H](C)NC(=O)OC(C)(C)C)C(C)C)nn1)C(F)(F)F` (stereo not given in full) it was 12. In the case of `C#CCOP(C)(=O)OC(C(=O)OC)C(F)(F)F` (stereo not given) it was 5; in that of `CC[C@H](C)[C@@H](Cn1cc(COP(C)(=O)OC(C(F)(F)F)C(F)(F)F)nn1)NC(=O)CN(Cc1ccccc1)C(=O)C(F)(F)F` (stereo not given in full), 11; in that of `COC(=O)C(OP(C)(=O)OCc1cn(C[C@@H](NC(=O)CN(Cc2ccccc2)C(=O)C(F)(F)F)C(C)C)nn1)C(F)(F)F` (stereo not given in full), 13. Turning to `C#CCOP(C)(=O)OC(C(F)(F)F)C(F)(F)F` (stereo not given), the Ratio IC50 is 11.

In the case of `CC[C@H](C)[C@H](NC(=O)OC(C)(C)C)C(=O)N(Cc1ccc(OC)cc1OC)C(C)(C)C(=O)N[C@@H](C)Cn1cc(COP(C)(=O)OC(C(F)(F)F)C(F)(F)F)nn1` (stereo not given in full), the Ratio IC50 came out at 1.

For `CC(C)(C(=O)NCCn1cc(COP(C)(=O)OC(C(F)(F)F)C(F)(F)F)nn1)N(Cc1ccccc1)C(=O)C(F)(F)F` (stereo not given), the Ratio IC50 came out at 5. In the case of `CC(C)[C@@H](Cn1cc(COP(C)(=O)OC(C(F)(F)F)C(F)(F)F)nn1)NC(=O)CN(Cc1ccccc1)C(=O)[C@H](C)NC(=O)OC(C)(C)C` (stereo not given in full), the Ratio IC50 stood at 1. Next, `CC(C)[C@@H](Cn1cc(COP(C)(=O)OC(C(F)(F)F)C(F)(F)F)nn1)NC(=O)CN(Cc1ccccc1)C(=O)C(F)(F)F` (stereo not given in full): 13.

These data come from ChEMBL document CHEMBL1921786, “Synthesis and testing of trifluoromethyl-containing phosphonate-peptide conjugates as inhibitors of serine hydrolases” (2011).
